Tested on: Anguilliformes
Assay: The compound was tested for % of maximum reactivation for GD-inhibited Eel AChE (Acetylcholinesterase) by oximes

Compound	Rmax [%]
Cn1cc[n+](COCC(C)(C)C)c1/C=N/O.[Cl-]	5.4
Cn1cc[n+](COCCCc2ccccc2)c1/C=N/O.[Cl-]	19.3
CCCCOC[n+]1ccn(C)c1/C=N/O.[Cl-]	17.4
Cn1cc[n+](COCc2ccccc2)c1/C=N/O.[Cl-]	25.5
CC(C)OC[n+]1ccn(C)c1/C=N/O.[Cl-]	9.8
Cn1cc[n+](COCc2cccc3ccccc23)c1/C=N/O.[Cl-]	20.4
CCCCCCCCOC[n+]1ccn(C)c1/C=N/O.[Cl-]	9.3
CC(OC[n+]1ccn(C)c1/C=N/O)C(C)(C)C.[Cl-] (stereo not drawn)	0.8
